Measurements reported in PubChem BioAssay (NCI).
The list shows a part of the results, in another mix than the full data.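 Single-dose data. Exposure time 48 hours. Values below 10 considered active.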 Active and inactive are the calls of the source.

Assays:
Assay in all cases: NCI-60 one-dose screen, 48 h (100 = growth as untreated, 0 = no growth, -100 = all killed)
Conditions in all cases: 10 µM
[1] = test system: HCT-15 colon
[2] = test system: HT29 colon
[3] = test system: SNB-75 CNS
[4] = test system: SNB-19 CNS
[5] = test system: U251 CNS
[6] = test system: PC-3 prostate
[7] = test system: SK-MEL-5 melanoma
[8] = test system: UACC-62 melanoma
[9] = test system: LOX IMVI melanoma
[10] = test system: SK-MEL-28 melanoma

Measured: growth

O=C(OCCN1CCCCCCCC1)C(O)(c1ccccc1)c1ccccc1
inactive: [1] 109% | [2] 97.4% | [3] 99.2% | [4] 108% | [5] 105% | [6] 94.9% | [7] 101% | [8] 98% | [9] 107% | [10] 95.4%

O=[N+]([O-])c1cc([N+](=O)[O-])c(O)c([N+](=O)[O-])c1.c1ccnnc1
inactive: [1] 96.9% | [2] 96.7% | [3] 83% | [4] 101% | [5] 100% | [6] 98.2% | [7] 102% | [8] 99.2% | [9] 102% | [10] 106%

CCN(C)CC.O=[N+]([O-])c1cc([N+](=O)[O-])c(O)c([N+](=O)[O-])c1
inactive: [1] 104% | [2] 91.8% | [3] 86% | [4] 100% | [5] 112% | [6] 104% | [7] 100% | [8] 98% | [9] 97.7% | [10] 109%

CC(C)N1CCN(CCOC(=O)C(O)(c2ccccc2)c2ccccc2)CC1
inactive: [1] 104% | [2] 97.9% | [3] 91.3% | [4] 107% | [5] 97.2% | [6] 77.1% | [7] 99.5% | [8] 104% | [9] 94.2% | [10] 104%

CC[N+](C)(CC)Cc1cc(Cc2ccccc2)ccc1OC(=O)N(C)C
inactive: [1] 99.2% | [2] 101% | [3] 92.6% | [4] 102% | [5] 102% | [6] 101% | [7] 106% | [8] 98.4% | [9] 94.6% | [10] 104%

CNc1ccccc1.O=[N+]([O-])c1cc([N+](=O)[O-])c(O)c([N+](=O)[O-])c1
inactive: [1] 103% | [2] 110% | [3] 87.4% | [4] 100% | [5] 91.1% | [6] 106% | [7] 100% | [8] 95.4% | [9] 97.6% | [10] 103%

O=[N+]([O-])N(CCN(CC(Br)([N+](=O)[O-])[N+](=O)[O-])[N+](=O)[O-])CC(Br)([N+](=O)[O-])[N+](=O)[O-]
inactive: [1] 98.1% | [2] 97.4% | [3] 88.6% | [4] 108% | [5] 96.4% | [6] 96.7% | [7] 101% | [8] 103% | [9] 88.7% | [10] 111%

Cc1c([N+](=O)[O-])c(C)c([N+](=O)[O-])c(C)c1[N+](=O)[O-]
inactive: [1] 96.3% | [2] 109% | [3] 93.6% | [4] 100% | [5] 103% | [6] 99.6% | [7] 116% | [8] 102% | [9] 97.1% | [10] 104%

CCOC(=O)Nc1c([N+](=O)[O-])cc([N+](=O)[O-])cc1[N+](=O)[O-]
inactive: [1] 89.1% | [2] 111% | [3] 103% | [4] 114% | [5] 98.9% | [6] 88.6% | [7] 95.4% | [8] 94.7% | [9] 85.6% | [10] 111%

CC[N+]([O-])(CC)Cc1ccccc1.O=[N+]([O-])c1cc([N+](=O)[O-])c(S(=O)(=O)O)c([N+](=O)[O-])c1
inactive: [1] 94.9% | [2] 111% | [3] 85.9% | [4] 109% | [5] 96.6% | [6] 96.6% | [7] 97.5% | [8] 98.3% | [9] 93.7% | [10] 106%

CN/C(N)=N/[N+](=O)[O-]
inactive: [1] 92.7% | [2] 96% | [3] 84.5% | [4] 105% | [5] 112% | [6] 97.8% | [7] 108% | [8] 103% | [9] 102% | [10] 106%

Cc1ccc(Nc2c([N+](=O)[O-])cc([N+](=O)[O-])cc2[N+](=O)[O-])cc1
inactive: [1] 72% | [2] 73.3% | [3] 90.9% | [4] 99.4% | [5] 87.4% | [6] 74.2% | [7] 89.4% | [8] 62.5% | [9] 74.8% | [10] 97.2%

n1nc(-c2nn[nH]n2)n[nH]1
inactive: [1] 108% | [2] 107% | [3] 106% | [4] 98.3% | [5] 101% | [6] 109% | [7] 109% | [8] 98.9% | [9] 102% | [10] 114%
